The target of the experiment is T1, FXR (Homo sapiens, UniProt Q96RI1).
T1 sequence (Q96RI1 262-486 limits assumed): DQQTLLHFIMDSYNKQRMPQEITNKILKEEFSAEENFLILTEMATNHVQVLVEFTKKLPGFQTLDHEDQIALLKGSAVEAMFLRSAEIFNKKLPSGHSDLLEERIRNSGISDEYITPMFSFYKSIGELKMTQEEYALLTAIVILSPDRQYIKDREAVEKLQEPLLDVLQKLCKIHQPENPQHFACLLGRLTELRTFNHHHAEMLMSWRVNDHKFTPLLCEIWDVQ
Kind of experiment: Gal4-FXR / UAS luciferase cotransfection assay. Particulars: Gal4 chimeric cotransfection. Format: cell-based. As for the experimental part:
Cotransfection assays were performed as previously described in HEK293 cells (Gal4 cotransfection assay or IL-17 luciferase reporter)[8]. HEK293 and the mouse lymphoma EL4 (ATCC) cells were maintained in DMEM supplemented with 10% FBS plus antibiotics (penicillin and streptomycin; Invitrogen).
HEK293 cells were maintained in Dulbecco's modified Eagle's medium (DMEM) supplemented with 10% fetal bovine serum at 37° C. under 5% CO2. Reverse transfections were performed in bulk using 1×10^6 cells in 6 cm plates, 3 ug of total DNA in a 1:1 ratio of receptor and reporter and FuGene6 (Roche) in a 1:3 DNA:lipid ratio. Following day, cells re plated in 384 well plates at a density of 10,000 cells/well. After 4 hr, the cells were treated with the compound or DMSO as control. The luciferase levels were assayed following additional 20 hour incubation by one-step addition of BriteLite Plus (Perkin Elmer) and read using an Envision (Perkin Elmer). Data was normalized as fold change over DMSO treated cells.

With `CC(C)c1onc(-c2c(Cl)cccc2Cl)c1COc1ccc(/C=C/c2cccc(C(=O)O)c2)c(Cl)c1` [GW4064, reference compound], the “effect on transcriptional activity of FXR” value is recorded as “significant increase”.

The values above are taken from patent publication US9586928B2 (The Scripps Research Institute, priority 2011, dated 2017).
